Rows were chosen to be rich in hits. Some 16% of all compounds tested hit in one or more screens of this group.
TDP1 cell CPT – DT40-hTDP1 cell growth loss with CPT; chicken DT40 Tdp1-/-;hTDP1 cells + 20 nM CPT, ATP luminescence, 48 h; Potency, µM (highest dose often 46.2 µM), for inactives: at the highest dose activity change, negative = growth inhibition, usual class: inhibitors; actives 12% (n = 420,000); AID 686979; further: potency means the concentration at half of the fitted maximal effect; on the % scale 0 is the no-effect control and ±100 the full control effect; nearly all actives have a fitted effect of over 55% in size
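Chicken DT40 Tdp1-/- cells stably complemented with human TDP1 were seeded at 400 cells/well in medium containing 20 nM camptothecin, exposed to pin-transferred compounds, and grown at 37 °C for at least 48 hr. Viability was read as ATP luminescence.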
miR-21 reporter – miR-21 reporter, rising signal | HeLa miR-21 FLuc reporter, luciferase, 48 h | Potency, µM (top dose mostly 38.3 µM), inactives show at the top dose reporter change, positive = more light | 340,000 tested, under 10 active | AID 2288; active = well fitted rising curve with a large enough effect; inconclusive = small, poorly fitted or top-dose-only effect; inactive = no such curve, though single readings can be large or run the other way;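 further: % of control where 0% means no effect; miR-21 action dims this reporter so a rising signal means less miR-21 action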
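Using DMEM plus 10% FBS, HeLa miR-21-FLuc cells are incubated with test compounds (final up to about 40uM) for 48 hours; firefly luciferase signal is then imaged following reagent-mediated lysis.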
uPA surface inh – inhibitors of cell surface uPA generation. AID 540303. cell surface uPA generation assay, qHTS. Potency, µM (top dose mostly 38.3 µM), without a hit: at the top dose activity change, negative = inhibition, most hits filed as inhibitors. actives 0.31% (n = 330,000); active means well fitted inhibition curve with a large enough effect; inconclusive means small, poorly fitted or top-dose-only effect; inactive means no such curve, though single readings can be large or run the other way; tested in mouse RAW 264.7 cells; further: potency means the concentration at half of the fitted maximal effect; on the % scale 0 is the no-effect control and ±100 the full control effect; nearly all actives have a fitted effect of over 55% in size
TDP1 block – inhibitors of human tyrosyl-DNA phosphodiesterase TDP1. Potency, µM (doses to about 130 µM), inactives show at the top dose activity change, negative = inhibition, most hits filed as inhibitors. Q9NUW8. recombinant TDP1, AlphaScreen DNA substrate cleavage. actives 0.28% (n = 350,000); further: potency means the concentration at half of the fitted maximal effect; on the % scale 0 is the no-effect control and ±100 the full control effect; nearly all actives have a fitted effect of over 40% in size
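Enzyme-compound mixtures sat 15 min at room temperature, followed by a 5 min reaction with 15 nM final substrate and 10 min with AlphaScreen beads. Recombinant human Tdp1 was used at 1 nM final.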
TDP1 cell noCPT – qHTS for Inhibitors of human tyrosyl-DNA phosphodiesterase 1 (TDP1): qHTS in cells in absence of CPT; actives 15% (n = 420,000); DT40 Tdp1-/- hTDP1 cells, no CPT, ATP luminescence, 48 h; Potency, µM (top dose mostly 46.2 µM), inactives show at the highest dose activity change, negative = growth inhibition, actives largely listed as inhibitors; further: potency means the concentration at half of the fitted maximal effect; on the % scale 0 is the no-effect control and ±100 the full control effect; nearly all actives have a fitted effect of over 55% in size
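Growth of hTDP1-complemented DT40 Tdp1-knockout cells is measured by ATP luminescence after at least 48 hr compound exposure at 37 °C, with DMSO substituting for the 20 nM CPT used in the parallel screen.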
* marks the source's active call; other numbers are inactive results; ? = inconclusive; / = not tested or not shown. Unless noted, the call rests on the fitted dose curve; in most records, active means well fitted curve in the direction sought with a large enough effect; inconclusive means small, poorly fitted or top-dose-only effect, or another doubt; inactive means no such curve, though single readings can be large; an effect the other way counts as inactive or inconclusive.

Key to letters: A = TDP1 cell CPT; B = miR-21 reporter; C = uPA surface inh; D = TDP1 block; E = TDP1 cell noCPT
SMILES: Cc1cc(=O)[nH]c(SCC(=O)O)c1C#N
  A = 3%; B = -3%; C = 2%; D = 3%; E = 0%
SMILES: COc1ccccc1CC(=O)Nc1cc(OC)c(NC(=O)c2ccccc2)cc1OC
  A = -59%; B = 2%; C = 2%; D = /; E = 13µM*
SMILES: COc1ccc(CCNC(=O)COC(=O)/C=C/c2ccc(OC)cc2OC)cc1
  A = ?; B = /; C = 6%; D = 1%; E = ?
SMILES: CC(C)(C)S(=O)N1Cc2cn(Cc3ccccc3)c(=O)cc2[C@H]1CCO (stereo partly drawn)
  A = -1%; B = /; C = 4%; D = /; E = -9%
SMILES: CCN(CC)c1ccc(/C=N/NC(=O)Cc2nnc(NC(=O)Nc3ccccc3)s2)cc1
  A = ?; B = -12%; C = 3%; D = -1%; E = 21µM*
SMILES: CCc1cc(C(=O)N2CCCC(Nc3ccc(F)c(F)c3)C2)n(C)n1 (stereo not drawn)
  A = -4%; B = -2%; C = -8%; D = 2%; E = -25%
SMILES: C=C1C2=C(C(=O)N1OC)[C@@H](O)[C@@](C)(O)[C@@H](CCCCC)O2
  A = 15µM*; B = /; C = /; D = /; E = 13µM*
SMILES: CSc1nnc(Cn2c(=O)sc3ccccc32)n1-c1ccccc1C
  A = ?; B = /; C = 16%; D = /; E = 18µM*
SMILES: CC(Sc1nnc(Cn2c(=O)sc3ccccc32)n1C)c1ccccc1 (stereo not drawn)
  A = ?; B = -8%; C = -10%; D = -3%; E = -24%
SMILES: CCSc1nnc(Cn2c(=O)sc3ccccc32)n1C
  A = 13µM*; B = 1%; C = -4%; D = 8%; E = -14%
SMILES: Cc1nnc(SCC(=O)Nc2ncc3c(n2)CC(c2ccccc2)CC3=O)s1 (stereo not drawn)
  A = ?; B = 0%; C = 1%; D = 5%; E = -14%
SMILES: O=C(CSc1nnnn1-c1ccccc1)Nc1ncc2c(n1)CC(c1ccccc1)CC2=O (stereo not drawn)
  A = 16µM*; B = -4%; C = /; D = -7%; E = ?
SMILES: CCc1cc(C(=O)c2ccc(OC)cc2)c(NC(=O)CN2CCCCC2)s1
  A = ?; B = 1%; C = 6%; D = 5%; E = ?
SMILES: CC(C)C(=O)Nc1ccc(Nc2ccccc2)cc1
  A = 12µM*; B = -37%; C = -6%; D = 3%; E = 10µM*
SMILES: NS(=O)(=O)c1cccc(NC(=O)c2cccc3c(Br)cccc23)c1
  A = -4%; B = -2%; C = 10%; D = /; E = 4%

Whole records, looked up by structure. Values in the order: TDP1 cell CPT	miR-21 reporter	uPA surface inh	TDP1 block	TDP1 cell noCPT
CC(C)C(=O)Nc1ccc(Nc2ccccc2)cc1 across the screens: 12µM*	-37%	-6%	3%	10µM*
NS(=O)(=O)c1cccc(NC(=O)c2cccc3c(Br)cccc23)c1 across the screens: -4%	-2%	10%	/	4%

Taken from above.
For uPA surface inh, CSc1nnc(Cn2c(=O)sc3ccccc32)n1-c1ccccc1C is listed with 16%
For TDP1 cell noCPT, CC(Sc1nnc(Cn2c(=O)sc3ccccc32)n1C)c1ccccc1 (stereo not drawn) is listed with -24%
For TDP1 cell CPT, CC(C)(C)S(=O)N1Cc2cn(Cc3ccccc3)c(=O)cc2[C@H]1CCO (stereo partly drawn) is listed with -1%
For TDP1 block, CC(C)C(=O)Nc1ccc(Nc2ccccc2)cc1 is listed with 3%

Continuation.
Molecule | TDP1 cell CPT | miR-21 reporter | uPA surface inh | TDP1 block | TDP1 cell noCPT
CC(C)C(=O)Nc1ccc(Sc2ccc(F)cc2)cc1 | 16µM* | -4% | -2% | -4% | 16µM*
CC(C)C(=O)Nc1ccc(NC(=O)c2cccc3c(Br)cccc23)cc1 | 16µM* | 1% | 0% | / | ?
COc1ccc(/C=N/NC(=O)c2c([N+](=O)[O-])c(C)nn2C)cc1 | 1% | 0% | 5% | 7% | -1%
CCCCN(c1ccccc1)S(=O)(=O)c1cc2c3c(c1)C(C)C(=O)N3CCC2 (stereo not drawn) | 10µM* | 19% | / | -8% | 29µM*
CC1C(=O)N2CCCc3cc(S(=O)(=O)N(C)Cc4ccccc4)cc1c32 (stereo not drawn) | ? | -3% | 0% | 4% | ?
O=C(O)COCCN1CCN([C@H](c2ccccc2)c2ccc(Cl)cc2)CC1 | -20% | -2% | -2% | 3% | 7%
CN(C)c1ccc(-c2nc3ccccc3n2C)cc1 | 13µM* | 15% | ? | 7% | 13µM*
CC(C)n1c(-c2ccc(N(C)C)cc2)nc2ccccc21 | 29µM* | -46% | -14% | 5% | 11µM*
CCn1c(-c2ccc(N(C)C)cc2)nc2ccccc21 | 12µM* | 12% | -14% | 6% | 3.7µM*
CC1(C(=O)NS(=O)(=O)c2ccc(Cl)s2)CCN1C(=O)c1ccc(C2CCCCC2)cc1 (stereo not drawn) | -6% | / | / | / | -11%
CC1(C(=O)NS(=O)(=O)c2ccc(Cl)s2)CCN1C(=O)C1CCCCC1 (stereo not drawn) | 5% | / | / | / | 7.3µM*
CCOc1ccccc1-c1nc(-c2ccc(NC(=O)Cc3ccc(OC)cc3)cc2)no1 | ? | 1% | -1% | 6% | ?
CCOc1ccccc1-c1nc(-c2ccc(NC(=O)c3ccc(Br)o3)cc2)no1 | 23µM* | -9% | -4% | 0% | ?

Screening data deposited in PubChem by National Center for Advancing Translational Sciences (NCATS).
